# Assay results as given in PMC3057096 (Bioorganic & medicinal chemistry, 2010).
# System: P. berghei (sensitive strain)
# Assay: In vivo blood-schizontocidal antimalarial activity, rodent malaria model
# Set-up: species or system mice
# Conditions: 100 mg/kg/day × 4, oral
smiles,measurement,value
"COc1cc(NC(C)CCCN)c2ncccc2c1 (stereo not shown) [PQ, primaquine]",P. berghei in vivo activity class,Inactive
